Test results reported in BindingDB's records for patent US10087191 (Jiangsu Hengrui Medicine, 2018).

By UniProt entry, the sequences of proteins in these tests, tags left out.
UniProt P03372, whole entry: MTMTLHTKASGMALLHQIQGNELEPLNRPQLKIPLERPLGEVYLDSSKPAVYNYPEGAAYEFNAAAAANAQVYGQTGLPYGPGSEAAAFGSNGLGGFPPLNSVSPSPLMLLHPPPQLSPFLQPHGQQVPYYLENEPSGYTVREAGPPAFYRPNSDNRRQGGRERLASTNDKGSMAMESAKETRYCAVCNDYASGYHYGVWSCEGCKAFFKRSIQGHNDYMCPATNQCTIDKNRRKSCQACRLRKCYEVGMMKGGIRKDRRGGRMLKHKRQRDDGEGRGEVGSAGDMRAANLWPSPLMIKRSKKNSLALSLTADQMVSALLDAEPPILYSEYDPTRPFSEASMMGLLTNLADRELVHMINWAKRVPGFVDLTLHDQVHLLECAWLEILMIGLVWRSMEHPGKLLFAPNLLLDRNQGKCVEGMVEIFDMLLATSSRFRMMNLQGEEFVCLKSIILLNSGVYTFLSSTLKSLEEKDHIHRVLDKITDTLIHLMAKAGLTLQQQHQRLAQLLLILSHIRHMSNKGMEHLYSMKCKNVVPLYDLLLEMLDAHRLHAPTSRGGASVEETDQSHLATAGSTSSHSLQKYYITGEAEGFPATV

molecular target: Estrogen receptor (Homo sapiens, UniProt P03372); assay: Biological Assay

Row | IC50 [nM] | Structure (SMILES)
1 | 0.86 | CCn1cc(-c2ccc3c(c2)CC(C)N(CC(C)(C)F)C3c2c(F)cc(/C=C/C(=O)O)cc2F)cn1 (stereo not drawn) [US10087191, Example 20]
2 | 1.26 | Cc1ncc(-c2ccc3c(c2)CC(C)N(CC(C)(C)F)C3c2c(F)cc(/C=C/C(=O)O)cc2F)s1 (stereo not drawn) [US10087191, Example 10]

Row | Structure (SMILES) | IC50 [nM]
3 | CC1Cc2cc(-c3cn[nH]c3)ccc2C(c2c(F)cc(/C=C/C(=O)O)cc2F)N1CC(C)(C)F (stereo not drawn) [US10087191, Example 24] | 1.59
